Assay results as given in patent publication EP0969015A2, “Peptide diagnostic markers for human disorders” (Ortho-Clinical Diagnostics, Inc., priority 1998, dated 2000).

Test: Stability of peptides in urine samples
Conditions: compared with the gluten/casein related peptides; not studied in a systematic manner

For “NH4-PheLeuPheGlnProGlnArgPhe-COOH [morphine modulating neuropeptide]”, the stability in urine was “more stable in urine than the gluten/casein related peptides”.
